In assay [1] the target is T1, PML-RARalpha (Homo sapiens) (UniProt P10276+P29590). As to the kind of experiment: Induction of Flag-tagged PML/RARalpha (unknown origin) degradation overexpressed in HEK293T cells at 0.06 to 0.3 uM incubated for 16 hrs by Western blot analysis. The following applies: dose 0.06-0.3 µM.
Assay [2] deals with T1, PML-RARalpha (Homo sapiens). Description: Induction of Flag-tagged PML/RARalpha (unknown origin) degradation overexpressed in HEK293T cells at 0.4 to 2 uM incubated for 16 hrs by Western blot analysis. The following applies: dose 0.4-2 µM. A general note: A western blot detects proteins with antibodies after separation by electrophoresis.

Protein sequences, listed by entry. Tags and fused reporters are not part of them. Lines headed by an entry give the natural chain unless they say otherwise; changes in a name come on top.
UniProt P10276, whole entry, looked up: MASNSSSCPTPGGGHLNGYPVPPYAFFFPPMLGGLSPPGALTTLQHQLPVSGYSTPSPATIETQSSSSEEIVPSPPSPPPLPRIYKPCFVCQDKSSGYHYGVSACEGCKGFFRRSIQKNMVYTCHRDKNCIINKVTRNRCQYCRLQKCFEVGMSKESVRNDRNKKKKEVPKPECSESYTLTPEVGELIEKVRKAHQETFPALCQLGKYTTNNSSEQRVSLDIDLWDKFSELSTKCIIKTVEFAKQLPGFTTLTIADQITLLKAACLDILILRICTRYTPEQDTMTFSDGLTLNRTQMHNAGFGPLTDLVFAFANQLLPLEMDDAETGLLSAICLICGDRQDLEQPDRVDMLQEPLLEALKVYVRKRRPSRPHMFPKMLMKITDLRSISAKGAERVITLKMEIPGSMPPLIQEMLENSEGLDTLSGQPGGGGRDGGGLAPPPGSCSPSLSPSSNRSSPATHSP
UniProt P29590: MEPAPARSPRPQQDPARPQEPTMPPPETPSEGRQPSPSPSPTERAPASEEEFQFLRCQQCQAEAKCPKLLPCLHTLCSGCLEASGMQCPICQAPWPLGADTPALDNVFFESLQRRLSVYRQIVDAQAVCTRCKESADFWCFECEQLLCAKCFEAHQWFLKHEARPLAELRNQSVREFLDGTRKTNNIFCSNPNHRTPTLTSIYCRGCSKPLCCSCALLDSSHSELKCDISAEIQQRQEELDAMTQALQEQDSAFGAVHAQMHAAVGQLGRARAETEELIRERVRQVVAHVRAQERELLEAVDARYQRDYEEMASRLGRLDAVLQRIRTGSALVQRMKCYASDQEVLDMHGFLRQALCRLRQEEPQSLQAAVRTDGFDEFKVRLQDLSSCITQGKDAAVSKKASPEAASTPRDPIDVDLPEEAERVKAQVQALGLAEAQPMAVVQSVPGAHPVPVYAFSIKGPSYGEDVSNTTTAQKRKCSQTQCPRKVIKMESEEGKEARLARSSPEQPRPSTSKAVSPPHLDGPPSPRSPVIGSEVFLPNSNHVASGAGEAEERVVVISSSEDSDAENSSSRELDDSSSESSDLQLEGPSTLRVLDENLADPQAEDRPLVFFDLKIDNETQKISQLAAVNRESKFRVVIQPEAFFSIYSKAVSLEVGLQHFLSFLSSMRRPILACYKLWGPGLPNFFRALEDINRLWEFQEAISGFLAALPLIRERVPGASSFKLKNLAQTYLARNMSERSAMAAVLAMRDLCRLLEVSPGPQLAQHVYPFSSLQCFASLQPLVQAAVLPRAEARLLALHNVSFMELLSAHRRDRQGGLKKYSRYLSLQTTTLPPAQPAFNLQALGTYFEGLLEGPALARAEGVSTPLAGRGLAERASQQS

Data on two compounds can be found in ChEMBL document CHEMBL5375988, “AcGlcAs: A Novel P53-Targeting Arsenical with Potent Cellular Uptake and Cancer Cell Selectivity” (J Med Chem, 2023).

Structures are written as SMILES. Calls of active or inactive are those of the source. The calls are words filed in the database; no cut-off is given here.

In the case of `O=[As]c1ccccc1` (configuration not stated), in assay [1], the outcome was Active.
As to `I[As](I)I`, the outcome in assay [2] was Active.
